Target: JAK3 kinase (Homo sapiens, UniProt P52333)
Experiment: Mobility shift assay, in vitro JAK3 kinase inhibitory activity
Assay type: biochemical
Conditions: read-out: JAK3 IC50, Example 136

By UniProt entry, the sequences of proteins in these tests, tags left out.
UniProt P52333, whole entry: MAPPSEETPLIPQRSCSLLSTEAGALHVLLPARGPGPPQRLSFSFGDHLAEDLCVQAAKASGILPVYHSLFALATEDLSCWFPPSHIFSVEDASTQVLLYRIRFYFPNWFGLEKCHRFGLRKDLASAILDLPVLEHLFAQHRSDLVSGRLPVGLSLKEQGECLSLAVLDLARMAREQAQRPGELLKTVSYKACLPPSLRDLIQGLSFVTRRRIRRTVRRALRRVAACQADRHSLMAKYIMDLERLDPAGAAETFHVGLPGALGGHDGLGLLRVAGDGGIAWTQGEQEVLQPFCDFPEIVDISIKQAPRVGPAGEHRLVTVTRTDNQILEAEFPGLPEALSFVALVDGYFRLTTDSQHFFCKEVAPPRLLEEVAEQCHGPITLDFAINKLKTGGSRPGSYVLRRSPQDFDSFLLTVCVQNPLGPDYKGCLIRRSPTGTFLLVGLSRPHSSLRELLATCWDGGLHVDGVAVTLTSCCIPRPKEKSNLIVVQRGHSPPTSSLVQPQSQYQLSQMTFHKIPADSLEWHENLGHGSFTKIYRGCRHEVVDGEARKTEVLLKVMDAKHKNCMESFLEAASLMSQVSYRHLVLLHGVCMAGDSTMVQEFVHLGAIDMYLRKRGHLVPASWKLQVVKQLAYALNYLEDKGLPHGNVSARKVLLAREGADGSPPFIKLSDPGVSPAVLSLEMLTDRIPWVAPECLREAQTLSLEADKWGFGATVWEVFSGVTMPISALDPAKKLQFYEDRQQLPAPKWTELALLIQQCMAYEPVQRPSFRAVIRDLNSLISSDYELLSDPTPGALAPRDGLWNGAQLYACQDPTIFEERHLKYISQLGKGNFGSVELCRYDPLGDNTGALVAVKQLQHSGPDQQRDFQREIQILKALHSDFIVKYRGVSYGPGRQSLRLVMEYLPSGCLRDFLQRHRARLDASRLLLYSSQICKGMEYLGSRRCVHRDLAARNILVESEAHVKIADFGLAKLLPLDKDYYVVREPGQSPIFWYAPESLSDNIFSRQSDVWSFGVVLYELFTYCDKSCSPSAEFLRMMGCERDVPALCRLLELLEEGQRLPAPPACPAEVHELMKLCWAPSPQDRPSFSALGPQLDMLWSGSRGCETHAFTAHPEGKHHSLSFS

For `C=CC(=O)N1Cc2c(-c3ccnc4[nH]ccc34)cnn2CC12CC2`, the IC50 was 1.5 nM.

From patent US20260158031A1, “AROMATIC HETEROCYCLIC COMPOUND, PHARMACEUTICAL COMPOSITION CONTAINING THE SAME, AND USE THEREOF” (HANG ZHOU YUHONG PHARMATECH CO., LTD., priority 2021, published 2026)
